Binding of CDR-mutated scFvs to a peptide of the spike HR2 region

Target: peptide PDVDLGDISGINAS, taken from heptad repeat 2 (HR2) of SARS-CoV-2 spike.

Parent scFv Ab-14: VH joined to VL by the linker GGGGSGGGGSGGGGS. Changes lie in the light chain CDRs alone.
VH: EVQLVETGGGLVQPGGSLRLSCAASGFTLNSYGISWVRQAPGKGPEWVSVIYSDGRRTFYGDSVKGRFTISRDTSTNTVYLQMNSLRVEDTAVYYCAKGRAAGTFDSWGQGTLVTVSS
VL: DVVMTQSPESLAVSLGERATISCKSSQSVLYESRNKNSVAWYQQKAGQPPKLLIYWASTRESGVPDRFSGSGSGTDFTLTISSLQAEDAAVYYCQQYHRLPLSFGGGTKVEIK

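The parent was found by panning a naive human phage display library on the peptide. This is the validation round: designs drawn from the data on random variants, tested in the same kind of assay. Their group label is 14L_GP_HC (GP: Gaussian process model; HC: hill climbing; a sequence that several methods proposed may carry one label only). AlphaSeq pools MATa yeast showing the antibodies with MATalpha yeast showing the peptide. After mating in shaken culture at 30 °C for 16 h, diploids were selected and their barcode pairs sequenced. The ratio of observed to expected reads was calibrated, replicate by replicate, on BCL2-family standards whose Kd was known from biolayer interferometry. Each pool was mated in six replicate cultures.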

Each variant is given by its three light chain CDRs, as the data file delimits them; those of the parent are KSSQSVLYESRNKNSVA, WASTRES, QQYHRLPLS.
Values are log10 of the apparent Kd in nM; lower means stronger binding.
Averages over replicates are reported, and they cover detected replicates only.
Three control strains display no target. For all light chain designs, 4% of the pairings with them gave a signal, with a median of 2.64 and one signal in twenty below 1.59, so weak values seen in few replicates may be background. The control count says in how many pairings with the empty strains this scFv gave a signal, with their mean in brackets.
In the paper, a design with two or fewer of six values counts as a poor binder.
Values of this round are not directly comparable with the first-round values of the same sequences.

| # | CDR-L1 | CDR-L2 | CDR-L3 | log10 Kd (nM) by replicate | log10 Kd (nM), mean | control signals |
|---|---|---|---|---|---|---|
| 1 | KLEQSGNYESRNKNSVA | NASTRES | QQYHRLPLS | 0.29 / 0.41 / 0.04 / 0.18 / -0.03 / 0.04 | 0.15 | 0/18 |
| 2 | KTPQGVLYESRNKNSVA | DASVRES | QQYHRLPLS | 0.10 / -0.02 / -0.19 / -0.18 / -0.16 / 0.02 | -0.07 | 1/18 (2.79) |
| 3 | KSLQSQLYESRNKNSVA | HASTRED | QQYHRLPLS | 1.01 / 0.19 / 0.54 / 0.66 / 0.25 / 1.08 | 0.62 | 0/18 |
| 4 | KLMQSQLYESRNKNSVA | HASLRED | QQYHRLPLS | 0.61 / 0.22 / 0.03 / 0.33 / 0.30 / 0.76 | 0.38 | 3/18 (3.03) |
| 5 | KSSQVYLYESRNKNSVA | GASLRES | QQYHRLPLS | 0.36 / 0.43 / 0.21 / 0.39 / 0.39 / 0.32 | 0.35 | 2/18 (3.56) |
| 6 | KLPMSTLYESRNKNSVA | WASTRES | QQYHRLPLS | 0.23 / -0.12 / 0.06 / -0.08 / 0.13 / 0.33 | 0.09 | 2/18 (2.69) |
| 7 | KVLQSVLYESRNKNSVA | NASTRED | QQYHRLPLS | 0.46 / 0.20 / 0.17 / 0.12 / 0.20 / 0.34 | 0.25 | 4/18 (3.11) |
| 8 | KQSQSVLYEWRNKNNVA | DASTRES | QQYHRLPLS | -0.39 / -0.58 / -0.49 / -0.67 / -0.80 / -0.39 | -0.55 | 0/18 |
| 9 | KSSISYLYESRNCNSVA | EASTREQ | QQYHRLPLS | 0.83 / 0.93 / 0.67 / 1.44 / 1.10 / 1.73 | 1.12 | 1/18 (2.59) |
| 10 | KLMNSTLYESRQKNSVA | WASTRES | QQYHRLPLS | 2.85 / 2.63 / 1.92 / 3.22 / 2.23 / 1.94 | 2.46 | 0/18 |
| 11 | KVLQSVVYEGRNKNSVA | HASTRED | QQYHRLPLS | 0.67 / 0.40 / 0.12 / 0.15 / 0.69 / 0.54 | 0.43 | 0/18 |
| 12 | KSSQSQLYESGNKNSVA | HASTRED | QQYHRLPLS | 0.28 / 0.08 / 0.18 / -0.02 / 0.08 / 0.09 | 0.12 | 0/18 |
| 13 | KSSQSVLGEQRNKNSVA | SASTRES | QQYHRLPLS | 0.67 / 0.55 / 0.50 / 0.45 / 0.57 / 0.59 | 0.56 | 2/18 (1.94) |
| 14 | KLSWSVLFESRNKNSVA | DASTRES | QQYHRLPLS | -0.32 / -0.38 / -0.73 / -0.56 / -0.69 / -0.40 | -0.51 | 2/18 (2.27) |
| 15 | KSSQSVYFEPRNKNSVA | NASTRES | QQYHRLPLS | 0.98 / 1.41 / 1.43 / 0.96 / 1.03 / 1.39 | 1.20 | 0/18 |
| 16 | HSSPSTLYESRNKNSVA | NASQRES | QQYHRLPLS | 0.41 / 0.26 / 0.21 / 0.16 / 0.16 / 0.30 | 0.25 | 3/18 (2.87) |
| 17 | KSSPSVLYESRNKNSVA | NASTRES | QQYHRLPLQ | -0.07 / -0.48 / -0.21 / -0.38 / -0.23 / -0.19 | -0.26 | 1/18 (2.68) |
| 18 | KSSISYLYESQNTNSVA | EASTRES | QQYHRLPLS | 0.40 / 0.65 / 0.62 / 0.35 / 0.47 / 0.56 | 0.51 | 0/18 |
| 19 | KLSQSVLYESRNKNAVA | DASTRES | QMYHWLPLS | 1.01 / 0.68 / 0.79 / 0.71 / 0.58 / 0.79 | 0.76 | 2/18 (2.25) |
| 20 | KFSQSWLLESRNKNSVA | EASTRQS | QQYHRLPLS | 0.02 / -0.26 / -0.39 / -0.44 / -0.31 / -0.15 | -0.25 | 2/18 (3.00) |
| 21 | KHPQGVLYESRNKNSVA | GASVRES | QQYHRLPLS | 0.30 / 0.15 / -0.04 / 0.19 / 0.01 / 0.24 | 0.14 | 0/18 |
| 22 | KQSQSVLYESRNKNAVA | DASTRES | QSYHWLPLS | 0.23 / 0.27 / -0.05 / 0.18 / 0.07 / 0.37 | 0.18 | 1/18 (1.86) |
| 23 | KVRQSTLYESRNKNSVA | AASTRES | QQYHRLPLS | 0.27 / -0.10 / -0.10 / -0.30 / -0.11 / 0.05 | -0.05 | 0/18 |
| 24 | SFSQSVLYESRMKNSVA | NASTRES | QQYHRLPLS | -0.22 / -0.21 / -0.14 / -0.45 / -0.05 / -0.13 | -0.20 | 0/18 |
| 25 | KSLWSVLYESMNKNSVA | HASTRED | QQYHRLPLS | 0.57 / 0.45 / 0.55 / 0.30 / 1.01 / 0.93 | 0.63 | 0/18 |
| 26 | KLAQSTLYESRNQNSVA | WASTRES | QQYHRLPLS | 0.41 / 0.09 / 0.36 / 0.22 / -0.08 / 0.27 | 0.21 | 1/18 (3.97) |
| 27 | KSSQSFLYESRNFNSVA | AASTRES | QQYHRLPLS | 0.72 / 0.54 / 0.34 / 0.40 / 0.12 / 0.34 | 0.41 | 0/18 |
| 28 | KLSQSFLYESRMKNSVA | GASQRES | QQYHRLPLS | -0.12 / -0.22 / -0.21 / -0.04 / -0.34 / -0.10 | -0.17 | 0/18 |
| 29 | KVYPSYLYESRNKNSVA | QASTRES | QQYHLLPLS | 0.45 / 0.39 / 0.15 / 0.28 / 0.25 / 0.40 | 0.32 | 0/18 |
| 30 | KLMQSTLYESRNQNSVA | WASTRES | QQYHRLPLS | 3.06 / 2.09 / 1.52 / 1.09 / 1.22 / 2.09 | 1.84 | 1/18 (1.89) |

Source: Li et al. 2023 (doi:10.1038/s41467-023-39022-2), MIT Lincoln Laboratory and A-Alpha Bio; data file from the FLAb repository.